# Yeast mating assay 1: variants of the scFv Ab-14

Values reported by Engelhart et al. 2022, doi:10.1038/s41597-022-01779-4 (FLAb copy).

Binding partner: SARS-CoV-2 spike HR2 peptide, sequence PDVDLGDISGINAS.

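The starting antibody came from a phage panning campaign against this peptide. Variants in AAYL49 differ from the parent at up to three CDR positions; double and triple changes were sampled at random. The scFvs were displayed on barcoded MATa yeast, the peptide on MATalpha yeast. After mating in shaken culture at 30 °C for 16 h, diploids were selected and their barcode pairs sequenced. The ratio of observed to expected reads was calibrated, replicate by replicate, on BCL2-family standards whose Kd was known from biolayer interferometry. Each pool was mated in three replicate cultures.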

The variants keep the light chain, the linker and the frameworks of Ab-14 (scFv order VH, a (GGGGS)3 linker, VL).
VH: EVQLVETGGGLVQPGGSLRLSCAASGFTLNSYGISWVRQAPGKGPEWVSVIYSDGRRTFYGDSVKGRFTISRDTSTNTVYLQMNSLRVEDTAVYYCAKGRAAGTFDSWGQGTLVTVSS
VL: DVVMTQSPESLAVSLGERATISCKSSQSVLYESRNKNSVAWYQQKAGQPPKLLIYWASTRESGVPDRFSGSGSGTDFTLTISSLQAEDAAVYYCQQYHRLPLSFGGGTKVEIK

Variants are written as CDR1, CDR2 and CDR3 of the heavy chain (limits as in the source). Parent: GFTLNSYGIS, VIYSDGRRTFYGDSVK, GRAAGTFDS.
All variants listed here change A101 of the VH, counted from its first residue.
Kd is apparent (estimated from mating counts) and averaged on the log scale over replicates with a signal. Smaller is tighter.
"nd" marks a missing value. The strain was present, yet no cells mated with the target were sequenced in any replicate, which points to weak or no binding.
In this assay the parent's reference entry averaged 4.4 nM; its copy inside this library read 13 µM (one replicate of three).
As a blank, each scFv also met three strains without target: over library AAYL49, 15% of these pairings were detected, typically at 11 µM and seldom below 680 nM.

Variant GFTLNSYPIS | VIYSDGRRTFYGDSVK | GREAGTFDF showed nd (0 of 3 replicates).
Variant GITLNSYGIS | VIYSDGRRGFYGDSVK | GRSAGTFDS showed 920 nM (2 of 3 replicates).
Variant GFTLNSYGIS | KIYSDGRRTFYGDSVK | GRIAGTFDS showed 33 µM (3 of 3 replicates).
Variant GFTLNSYGIS | NIYSDGRRTFYGDSVK | GRHAGTFQS showed nd (0 of 3 replicates).
Variant GFTLNSYGIS | VIYSDGRRTFYGDSVK | GREVGTFDS showed nd (0 of 3 replicates).
Variant GFTLNRYGIS | VIYSDGRRTFYGDSVK | GRDAGTFWS showed 53 nM (3 of 3 replicates).
Variant GFTLNSYGIS | LIYSDGRRTFYGDSVK | GRGYGTFDS showed nd (0 of 3 replicates).
Variant GFTLNSYGIS | VIHSDPRRTFYGDSVK | GRNAGTFDS showed nd (0 of 3 replicates).
Variant GFTLNSYGIS | VIYSDARRTFYGDSVK | VRNAGTFDS showed 110 µM (1 of 3 replicates).
Variant GFTLNSYGIS | VIYSDGRRTFYGDSVK | GRKAGTFDS showed 160 nM (3 of 3 replicates).
Variant GFTLNSYGIS | VIYSDGRRTFYGDSHK | GRPAGYFDS showed nd (0 of 3 replicates).
Variant GFTLNSYGIS | VIYSDGRRTFYGASVK | GRMAGPFDS showed 16 µM (3 of 3 replicates).
Variant GFTLNSYGIS | VIYSDGRRTFPGDSMK | GRDAGTFDS showed 19 µM (3 of 3 replicates).
Variant GFTLWSYGIS | VIYSDGRRTFYFDSVK | GRIAGTFDS showed 380 nM (3 of 3 replicates).
Variant GFTLNSYGIS | VIYSDGRRTFYEDTVK | GRKAGTFDS showed 11 µM (1 of 3 replicates).
Variant GTTLNSYGIS | VIYSDGWRTFYGDSVK | GRSAGTFDS showed 15 µM (3 of 3 replicates).
Variant GFTLNSYGIS | VIYSDGRRTFYGDSVK | FREAGTFDS showed 8.5 µM (2 of 3 replicates).
Variant GFTLNSYGIS | VIYSDGRRTFYGDSVK | GEREGTFDS showed 9.7 µM (2 of 3 replicates).
Variant GETLNSYGIS | VIYSDGRRTFYGDSVK | GRNAGTFDQ showed 19 nM (3 of 3 replicates).
Variant GFTLNSYGIS | VIYSDGRRTFYGDSVK | GRQQVTFDS showed nd (0 of 3 replicates).
Variant GFTLNSYGCS | VIYSDGRRTFYGDSVK | GRQAGTFDT showed 190 nM (3 of 3 replicates).
Variant GRTLNEYGIS | VIYSDGRRTFYGDSVK | GRNAGTFDS showed 6.9 nM (3 of 3 replicates).
Variant GFELNSYGIS | VIYSKGRRTFYGDSVK | GRSAGTFDS showed nd (0 of 3 replicates).
Variant GFTLNSYGIS | VIYSDGRRTFCGASVK | GRRAGTFDS showed nd (0 of 3 replicates).
Variant GNTLFSYGIS | VIYSDGRRTFYGDSVK | GRGAGTFDS showed 65 nM (3 of 3 replicates).
Variant YFTLNSQGIS | VIYSDGRRTFYGDSVK | GRIAGTFDS showed 360 nM (3 of 3 replicates).
Variant GFTENSYGIT | VIYSDGRRTFYGDSVK | GRQAGTFDS showed 5.8 µM (1 of 3 replicates).
Variant GFTLNSYGQS | VIYSDGRPTFYGDSVK | GRYAGTFDS showed nd (0 of 3 replicates).
Variant GFTLNSYGIS | VIYSDGRRTFYGDSVK | GRSALTFDS showed 7.4 µM (2 of 3 replicates).
Variant GFTLNSYGIS | VIYSDGRRTFYGDSVK | HRPAGTFDS showed nd (0 of 3 replicates).
Variant EFTLNSYGIS | VIYSDGRRCFYGDSVK | GRMAGTFDS showed 68 nM (3 of 3 replicates).
Variant GFKLNHYGIS | VIYSDGRRTFYGDSVK | GRMAGTFDS showed 18 nM (3 of 3 replicates).
Variant GFTLNSYGAS | VIYSDGRRTFYGDSVK | GRSAGNFDS showed nd (0 of 3 replicates).
Variant GFTLNSYGIS | VIYSDGRRTFYGGSVK | GREAGTFDS showed 4.1 nM (3 of 3 replicates).
Variant GFTLNSYGIS | VIMSDGRRTFYGDSVD | GRIAGTFDS showed 26 µM (2 of 3 replicates).
Variant GFTLNSYGIS | VIYSDGRRTFYGDSVK | GRPAGTFDS showed 3.4 nM (3 of 3 replicates).
Variant GFTLNSYGIS | VIYSDGRRTFYGDSVK | GRFAGTFDS showed 22 nM (3 of 3 replicates).